# Patent US20230365542A1, “Selective Agonists of 5-HT2A Receptor and Methods of Use” (Yale University, priority 2020, published 2023)
# System: wild-type (WT) and vesicular monoamine transporter 2 (VMAT2) heterozygous (HET) mice
# Experiment: Tail suspension test (immobility time) in wild-type and VMAT2 heterozygous mice
# Format: in vivo
# Settings: for immobility time during the tail suspension test: 30 min after administration, 20 mg/kg fluoxetine i.p., compared to vehicle
# Experimental: Tail suspension: This test was conducted as described in the literature (Acta Crystallographica Section D, 2010, 66:486-501). Mice were administered vehicle, fluoxetine (Sigma-Aldrich, St. Louis, MO), 38, or 33 (i.p.). Immobility times were assessed over 6 min using MedAssociates software.
# Statistics: Statistical analyses were performed with IBM SPSS Statistics 27 programs (IBM, Chicago, IL). The data are presented as means and standard errors of the mean. No sex effects were detected. One- or two-way ANOVA or repeated measures ANOVA (RMANOVA) were used, followed by Bonferroni corrected post-hoc analyses. A p<0.05 was considered significant. All behavioral results were plotted using GraphPad Prism.
smiles,measurement,setting,value
"CNCCC(Oc1ccc(C(F)(F)F)cc1)c1ccccc1 (stereo not drawn) [fluoxetine, reference compound]","dose restoring wild-type levels of mobility, relative to 0.5 mg/kg of 38 and 1 mg/kg of 33","VMAT2-heterozygous mice, tail suspension",40 to 20 fold
same,immobility time during the tail suspension test,VMAT2 HET mice,reduced immobility time significantly
same,immobility time during the tail suspension test,WT mice,no effects
